This assay has as its target Female germline-specific tumor suppressor gld-1 (Caenorhabditis elegans) (UniProt Q17339). Nature of the assay: C. elegans GLD-1 RNA interaction blockers – biochemical, fluorescence polarization, triplicate, confirmation (AID 2459).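 Also: 0% = GLD-1 with RNA probe and DMSO and 100% = wells lacking GLD-1.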 As to conditions: GLD-1/FL-TGE RNA fluorescence polarization, at 5.96 µM, hits give high values.

Sequences of proteins named here, by UniProt entry; tags and fusion partners are left off. A change or cut given only in a name is not applied to a line headed by its entry.
UniProt Q17339: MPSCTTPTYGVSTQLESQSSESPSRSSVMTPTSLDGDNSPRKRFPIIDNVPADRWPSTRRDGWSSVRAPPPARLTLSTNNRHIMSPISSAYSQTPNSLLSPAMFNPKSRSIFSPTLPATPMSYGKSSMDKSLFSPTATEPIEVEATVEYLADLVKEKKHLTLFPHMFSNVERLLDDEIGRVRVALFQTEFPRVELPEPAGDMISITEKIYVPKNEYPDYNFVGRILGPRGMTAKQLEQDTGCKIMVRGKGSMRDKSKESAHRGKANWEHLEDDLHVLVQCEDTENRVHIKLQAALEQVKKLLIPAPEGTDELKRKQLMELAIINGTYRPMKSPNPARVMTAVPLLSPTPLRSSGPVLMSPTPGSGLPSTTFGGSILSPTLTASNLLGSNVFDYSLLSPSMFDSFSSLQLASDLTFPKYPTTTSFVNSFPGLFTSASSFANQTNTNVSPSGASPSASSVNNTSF

The structures appear in SMILES notation. Only a part is listed here, and it is no random draw. The source made the active and inactive calls.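 The calls were made as follows: active = average inhibition across triplicates above the hit cutoff set in the primary screen (cut at about 32% in these data); inactive = the rest.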

By inhibition is commonly meant the change of the read-out against control, counted positive when it falls. For `CS(=O)(=O)c1cc([N+](=O)[O-])c2no[n+]([O-])c2c1`, the inhibition was inactive: -17.3%.

The values are drawn from PubChem BioAssay AID2459 (The Scripps Research Institute Molecular Screening Center, 2010).
